Experimental data taken from ChEMBL document CHEMBL1144974, “Design, synthesis, and activity of novel cis- and trans-3,6-disubstituted pyran biomimetics of 3,6-disubstituted piperidine as potential ligands for the dopamine transporter” (Bioorg Med Chem Lett, 2003).

Protein sequences, listed by entry. Tags and fused reporters are not part of them.
UniProt Q9WTR4, whole entry: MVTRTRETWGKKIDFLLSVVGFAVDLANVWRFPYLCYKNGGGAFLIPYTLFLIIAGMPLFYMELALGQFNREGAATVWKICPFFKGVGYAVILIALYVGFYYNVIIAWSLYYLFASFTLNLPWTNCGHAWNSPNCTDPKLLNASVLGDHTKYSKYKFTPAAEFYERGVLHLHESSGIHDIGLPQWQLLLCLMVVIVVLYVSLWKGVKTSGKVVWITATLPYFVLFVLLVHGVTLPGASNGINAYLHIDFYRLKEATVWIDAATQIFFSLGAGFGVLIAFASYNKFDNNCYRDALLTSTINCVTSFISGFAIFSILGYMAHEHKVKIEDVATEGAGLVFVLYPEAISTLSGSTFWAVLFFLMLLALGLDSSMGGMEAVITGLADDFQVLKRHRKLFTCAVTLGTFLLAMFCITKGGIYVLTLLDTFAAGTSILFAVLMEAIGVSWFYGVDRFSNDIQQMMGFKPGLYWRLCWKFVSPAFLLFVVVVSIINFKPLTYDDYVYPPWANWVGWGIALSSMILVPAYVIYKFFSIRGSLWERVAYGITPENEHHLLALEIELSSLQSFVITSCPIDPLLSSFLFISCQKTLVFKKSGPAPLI
UniProt P31652, whole entry: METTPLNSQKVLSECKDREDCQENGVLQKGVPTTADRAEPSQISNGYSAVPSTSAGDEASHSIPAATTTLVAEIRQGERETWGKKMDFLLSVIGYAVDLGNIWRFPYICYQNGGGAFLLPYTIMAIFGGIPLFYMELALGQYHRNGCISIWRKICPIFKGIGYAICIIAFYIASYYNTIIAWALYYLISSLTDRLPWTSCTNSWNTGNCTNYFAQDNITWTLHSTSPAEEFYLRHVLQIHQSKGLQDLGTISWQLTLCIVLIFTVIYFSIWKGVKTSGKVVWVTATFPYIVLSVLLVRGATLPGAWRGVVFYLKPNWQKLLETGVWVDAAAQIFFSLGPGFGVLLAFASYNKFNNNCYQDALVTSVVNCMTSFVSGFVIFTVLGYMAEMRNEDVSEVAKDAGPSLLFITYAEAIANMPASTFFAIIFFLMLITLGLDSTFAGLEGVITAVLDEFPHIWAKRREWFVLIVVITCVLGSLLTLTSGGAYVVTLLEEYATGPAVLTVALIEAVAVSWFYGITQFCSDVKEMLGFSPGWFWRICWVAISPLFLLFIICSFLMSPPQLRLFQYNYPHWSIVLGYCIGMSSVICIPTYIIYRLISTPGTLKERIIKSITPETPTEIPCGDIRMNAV
UniProt P23977, whole entry: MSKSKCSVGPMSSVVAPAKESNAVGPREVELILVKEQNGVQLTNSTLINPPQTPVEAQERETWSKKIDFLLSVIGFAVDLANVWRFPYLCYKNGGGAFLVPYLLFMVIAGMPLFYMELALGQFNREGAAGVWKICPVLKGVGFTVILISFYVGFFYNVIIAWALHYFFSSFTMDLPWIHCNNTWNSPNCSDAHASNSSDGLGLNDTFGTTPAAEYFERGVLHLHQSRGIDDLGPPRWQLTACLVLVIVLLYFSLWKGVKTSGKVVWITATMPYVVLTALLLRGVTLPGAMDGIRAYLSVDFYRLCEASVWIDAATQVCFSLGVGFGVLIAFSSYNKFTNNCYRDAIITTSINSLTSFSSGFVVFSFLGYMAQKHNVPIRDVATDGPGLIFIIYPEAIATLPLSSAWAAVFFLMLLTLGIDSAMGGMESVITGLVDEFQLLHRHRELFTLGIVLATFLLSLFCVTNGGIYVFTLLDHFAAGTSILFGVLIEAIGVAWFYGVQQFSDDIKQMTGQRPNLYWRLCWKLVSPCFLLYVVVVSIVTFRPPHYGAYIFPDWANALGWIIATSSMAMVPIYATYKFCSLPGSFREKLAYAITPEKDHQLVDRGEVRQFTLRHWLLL

Key:
Assay type in all cases: tissue-based
[1] = molecular target: Norepinephrine transporter (Rattus norvegicus, UniProt Q9WTR4); experiment: Inhibition of binding of [3H]nisoxetine to (NET) norepinephrine transporter in rat striatum
Procedure, shortened: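 Radioligand displacement of [3H]nisoxetine labelling NET; other binding conditions are referred to earlier work. Values are means ± SEM of three independent experiments, each assayed in triplicate.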

[2] = molecular target: Sodium-dependent serotonin transporter (Rattus norvegicus, UniProt P31652); experiment: Inhibition of binding of [3H]citalopram to (SERT) serotonin transporter in rat striatum
[3] = molecular target: Sodium-dependent dopamine transporter (Rattus norvegicus, UniProt P23977); experiment: Inhibition of binding of [3H]WIN-35 428 to (DAT) dopamine transporter in rat striatum

Row | SMILES | pIC50 [1] | pIC50 [2] | pIC50 [3]
1 | O=[N+]([O-])c1ccc(CNC2CCC(C(c3ccccc3)c3ccccc3)OC2)cc1 (racemic) | 6.01 | 6.13 | 
2 | COc1ccc(CNC2CCC(C(c3ccccc3)c3ccccc3)OC2)cc1 (racemic) | 5.81 | 5.93 | 
3 | N#Cc1ccc(CNC2CCC(C(c3ccccc3)c3ccccc3)OC2)cc1 (racemic) |  |  | 7.28

pIC50: −log10 of the molar value.
